Measurements as given in paper PMC3086806, “Mining a Cathepsin Inhibitor Library for New Antiparasitic Drug Leads” (PLoS Neglected Tropical Diseases, 2011).

What was measured:
[1] = tested on: Jurkat cells (clone E6-1); assay: Jurkat cell cytotoxicity assay; assay type: cell-based; conditions: 40 hr
Experimental: Jurkat cells (clone E6-1) were grown in complete RPMI-1640 medium containing 10% FBS, 50 U/mL penicillin and 50 µg/mL streptomycin (Invitrogen) at 37°C under a humidified atmosphere and 5% CO2. For cytotoxicity testing, cells were diluted to 1×10^5 per ml in complete RPMI-1640 medium. Test compound stocks were prepared in 100% DMSO and screened at 10 µM against cells (1×10^4 cells per well) in sterile Greiner 96-well flat white opaque culture plates (0.5% final DMSO concentration). The 0% inhibition control wells contained 0.5% DMSO while 100% inhibition control wells contained 40 µM staurosporine. After compound addition, plates were incubated for 40 hr at 37°C. At the end of the incubation period, 50 µL of CellTiter-Glo™ reagent (Promega Inc., Madison, WI, USA) was added to each well and plates were placed on an orbital shaker at room temperature for 2 min to induce lysis. After a further 10 min incubation without shaking to stabilize the signal, the ATP-bioluminescence of each well was determined using an Analyst HT plate reader (Molecular Devices, Sunnyvale, CA, USA). Calculations of percentage inhibition and IC50 were performed similar to those in the T. brucei brucei assay.

human cathepsin L = conditions: read-out: Ki catL; historical data; ref data provided by Celera Genomics; cited from earlier work
human cathepsin B = conditions: read-out: Ki catB; historical data; ref data provided by Celera Genomics; cited from earlier work

CC(C)C[C@H](NC(=O)c1ccc(-c2ccccc2Cl)s1)C(=O)NCC#N
Cytotoxicity (% inhibition at 10 µM) Jurkat cells [1]: <5%
Ki (human cathepsin L): 710 nM
Ki (human cathepsin B): 1300 nM

COc1cccc(-c2ccc(C(=O)N[C@@H](CC(C)C)C(=O)NCC#N)cc2)c1
Cytotoxicity (% inhibition at 10 µM) Jurkat cells [1]: <5%
Ki (human cathepsin L): 680 nM
Ki (human cathepsin B): 1600 nM

CC(C)C[C@H](NC(=O)c1cc2c(C(F)(F)F)nn(C)c2s1)C(=O)NCC#N
Cytotoxicity (% inhibition at 10 µM) Jurkat cells [1]: <5%
Ki (human cathepsin L): 150 nM
Ki (human cathepsin B): 54000 nM

CC(C)C[C@H](NC(=O)c1ccc(-c2ccccc2F)cc1)C(=O)NCC#N
Cytotoxicity (% inhibition at 10 µM) Jurkat cells [1]: <5%
Ki (human cathepsin L): 48000 nM
Ki (human cathepsin B): 20000 nM

Cc1ccccc1-c1cccc(C(=O)N[C@@H](CC(C)C)C(=O)NCC#N)c1
Cytotoxicity (% inhibition at 10 µM) Jurkat cells [1]: <5%
Ki (human cathepsin L): 220 nM
Ki (human cathepsin B): 24000 nM

CC(C)C[C@H](NC(=O)c1cc2c(-c3ccccc3)nn(C)c2s1)C(=O)NCC#N
Cytotoxicity (% inhibition at 10 µM) Jurkat cells [1]: <5%
Ki (human cathepsin L): 110 nM
Ki (human cathepsin B): 90000 nM

CSc1cccc(-c2cccc(C(=O)N[C@@H](CC(C)C)C(=O)NCC#N)c2)c1
Cytotoxicity (% inhibition at 10 µM) Jurkat cells [1]: <5%
Ki (human cathepsin L): 110 nM
Ki (human cathepsin B): 5700 nM

COc1ccc(-c2csc(C(=O)N[C@@H](CC(C)C)C(=O)NCC#N)c2)cc1
Cytotoxicity (% inhibition at 10 µM) Jurkat cells [1]: <5%
Ki (human cathepsin L): 350 nM
Ki (human cathepsin B): 4200 nM

CC(C)C[C@H](NC(=O)c1ccc(-c2ccc(S(C)(=O)=O)cc2)cc1)C(=O)NCC#N
Cytotoxicity (% inhibition at 10 µM) Jurkat cells [1]: <5%
Ki (human cathepsin L): 310 nM
Ki (human cathepsin B): 2000 nM

CC(C)C[C@H](NC(=O)c1ccc(-c2ccc(O)cc2)cc1)C(=O)NCC#N
Cytotoxicity (% inhibition at 10 µM) Jurkat cells [1]: <5%
Ki (human cathepsin L): 4300 nM
Ki (human cathepsin B): 5200 nM

CC(C)C[C@H](NC(=O)c1cccc(-c2ccccc2S(C)(=O)=O)c1)C(=O)NCC#N
Cytotoxicity (% inhibition at 10 µM) Jurkat cells [1]: <5%
Ki (human cathepsin L): 2200 nM
Ki (human cathepsin B): 18000 nM
